One experiment has as its target Mu-type opioid receptor (Homo sapiens, UniProt P35372). Briefly: Displacement of [3H]diprenorphine from human recombinant mu opioid receptor expressed in HEK cells after 60 mins. The class given is cell-based, HEK293. In general terms: Loss of bound radioactivity is the signal in a displacement assay; it reports binding, not function.
For experiment [1], the target named is Delta-type opioid receptor (Homo sapiens, UniProt P41143). As to the kind of experiment: Displacement of [3H]DADLE from human recombinant delta opioid receptor expressed in HEK cells after 60 mins. The class given is cell-based, HEK293.

Sequences of proteins named here, by UniProt entry; tags and fusion partners are left off.
UniProt P35372, whole entry: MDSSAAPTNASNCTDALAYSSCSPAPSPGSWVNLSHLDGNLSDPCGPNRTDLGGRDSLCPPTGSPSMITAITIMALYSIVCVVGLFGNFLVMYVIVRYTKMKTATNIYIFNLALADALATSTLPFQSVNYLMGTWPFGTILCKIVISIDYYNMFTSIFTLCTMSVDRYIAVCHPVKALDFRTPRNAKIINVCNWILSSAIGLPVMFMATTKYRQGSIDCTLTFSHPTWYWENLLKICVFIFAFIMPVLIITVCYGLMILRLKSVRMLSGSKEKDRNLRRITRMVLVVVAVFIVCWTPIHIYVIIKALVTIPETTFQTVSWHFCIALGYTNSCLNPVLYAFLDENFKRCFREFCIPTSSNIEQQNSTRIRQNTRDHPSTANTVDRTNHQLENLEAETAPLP
UniProt P41143, whole entry: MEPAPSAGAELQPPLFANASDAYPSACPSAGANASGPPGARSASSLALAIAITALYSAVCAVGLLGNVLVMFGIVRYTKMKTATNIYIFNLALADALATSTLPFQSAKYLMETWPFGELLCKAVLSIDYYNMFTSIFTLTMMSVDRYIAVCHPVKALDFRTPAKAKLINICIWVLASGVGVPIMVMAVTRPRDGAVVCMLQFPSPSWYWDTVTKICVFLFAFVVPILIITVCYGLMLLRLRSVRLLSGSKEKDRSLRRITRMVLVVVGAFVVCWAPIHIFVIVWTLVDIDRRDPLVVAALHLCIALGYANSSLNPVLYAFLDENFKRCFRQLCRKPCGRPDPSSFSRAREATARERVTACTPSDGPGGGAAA

SMILES strings stand for the structures.

On to `CC(C)[C@@H](CN1CC[C@@](C)(c2cccc(O)c2)[C@@H](C)C1)NC(=O)[C@H]1Cc2ccc(O)cc2CN1` [JDTIC], for which the Ki worked out at 4 nM at Mu-type opioid receptor and 36.1 nM in experiment [1].

For orientation: Ki means a dissociation constant, usually derived from enzyme kinetics or from competition with a known ligand.

The values above are taken from ChEMBL document CHEMBL3396991 (Eur J Med Chem, 2015).
